Here are results for one substance from PMC5970223, “Multiplexed profiling of GPCR activities by combining split TEV assays and EXT-based barcoded readouts” (Scientific Reports, 2018).

Chains of the proteins cited; added tags and fusions are not shown. Lines headed by an entry give the natural chain unless they say otherwise; changes in a name come on top.
UniProt P30872: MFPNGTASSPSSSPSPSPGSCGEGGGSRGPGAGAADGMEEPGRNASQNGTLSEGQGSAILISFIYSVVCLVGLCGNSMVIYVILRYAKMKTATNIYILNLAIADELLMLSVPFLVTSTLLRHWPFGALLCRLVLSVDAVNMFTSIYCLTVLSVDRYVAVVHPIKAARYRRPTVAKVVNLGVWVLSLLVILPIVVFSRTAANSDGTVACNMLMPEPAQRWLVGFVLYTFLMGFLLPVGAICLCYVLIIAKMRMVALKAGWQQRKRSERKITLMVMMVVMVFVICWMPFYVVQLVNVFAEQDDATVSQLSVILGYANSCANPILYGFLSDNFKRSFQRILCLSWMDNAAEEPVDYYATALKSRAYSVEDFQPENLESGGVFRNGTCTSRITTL

This assay addresses SSTR1-V2R-NTEV-tevS-GV (human) (UniProt P30872).

In the case of Somatostatin (peptide), the β-arrestin2 recruitment to the receptor (split TEV, EXT barcode read-out, multiplexed, U2OS cells), fold change over unstimulated, somatostatin 100 pM to 100 µM was found to be 4 fold.
